Data set [1] deals with mice. The experiment in a line: Radiation-protective evaluation in mice, 30-day survival after lethal irradiation. Conditions: for 30-Day Survival: 30 min before 9.5 GY.
Data set [2] has as its system mice. Conditions: intraperitoneal.

Where only a bound is given, the exact number is not on record here.

Regarding `CC(C)(C)NC(=O)CCNCCSP(=O)(O)O`, the results for the “30-Day Survival” value in data set [1] (75 mg/kg i.p.), in data set [1] (150 mg/kg i.p.) and in data set [1] (300 mg/kg i.p.) were 40%, 60% and 80%, respectively. Further, the “protection at the highest dose tested” value in data set [1] (highest dose tested) is on record as 80%. For the same compound, the “Approximate LD50” value in data set [2] was over 300 mg/kg.

The values are drawn from patent publication US5298499A, “S-2-(substituted ethylamino)ethyl phosphorothioates” (Research Triangle Institute, priority 1991, dated 1994).
